Data from ChEMBL document CHEMBL3232818, “Imidazole-derived 2-[N-carbamoylmethyl-alkylamino]acetic acids, substrate-dependent modulators of insulin-degrading enzyme in amyloid-β hydrolysis” (Eur J Med Chem, 2014).

Tests used:
Insulin-degrading enzyme [1] = target: T1, Insulin-degrading enzyme (Homo sapiens, UniProt P14735)
T1 sequence (P14735 whole entry): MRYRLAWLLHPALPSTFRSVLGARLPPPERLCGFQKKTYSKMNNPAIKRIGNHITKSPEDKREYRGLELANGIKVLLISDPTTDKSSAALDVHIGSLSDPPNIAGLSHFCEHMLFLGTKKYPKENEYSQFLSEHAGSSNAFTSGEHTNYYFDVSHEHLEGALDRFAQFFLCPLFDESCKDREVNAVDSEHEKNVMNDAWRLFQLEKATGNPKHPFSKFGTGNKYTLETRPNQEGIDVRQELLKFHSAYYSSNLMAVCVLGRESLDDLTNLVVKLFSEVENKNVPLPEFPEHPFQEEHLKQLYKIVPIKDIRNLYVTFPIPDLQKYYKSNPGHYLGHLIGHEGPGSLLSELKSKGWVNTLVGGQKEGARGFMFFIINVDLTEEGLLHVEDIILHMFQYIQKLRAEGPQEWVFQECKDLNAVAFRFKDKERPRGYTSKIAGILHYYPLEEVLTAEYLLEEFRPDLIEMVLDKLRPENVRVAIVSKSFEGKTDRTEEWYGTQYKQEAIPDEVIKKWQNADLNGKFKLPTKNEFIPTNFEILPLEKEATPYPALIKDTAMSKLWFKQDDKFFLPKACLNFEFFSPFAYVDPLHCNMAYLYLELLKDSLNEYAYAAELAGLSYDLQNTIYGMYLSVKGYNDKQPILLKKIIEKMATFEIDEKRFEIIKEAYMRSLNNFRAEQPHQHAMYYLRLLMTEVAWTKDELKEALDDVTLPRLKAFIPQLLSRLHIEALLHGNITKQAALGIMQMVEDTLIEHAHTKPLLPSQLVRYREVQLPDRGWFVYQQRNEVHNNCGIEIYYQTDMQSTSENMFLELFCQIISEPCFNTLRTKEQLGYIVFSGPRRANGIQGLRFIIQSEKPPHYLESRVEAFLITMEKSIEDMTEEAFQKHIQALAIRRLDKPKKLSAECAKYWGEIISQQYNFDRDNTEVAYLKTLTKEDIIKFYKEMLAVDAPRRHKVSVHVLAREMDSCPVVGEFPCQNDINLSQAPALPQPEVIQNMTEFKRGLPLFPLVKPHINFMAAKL

Insulin-degrading enzyme [2] = target: T1, Insulin-degrading enzyme; remark: listed apart in the source
Insulin-degrading enzyme [3] = target: T1, Insulin-degrading enzyme; experiment: Inhibition of human recombinant IDE-mediated amyloid beta (16 to 23) hydrolysis using ATTO 655-Cys-Lys-Leu-Val-Phe-Phe-Ala-Glu-Asp-Trp as substrate preincubated for 10 mins measured after 30 mins by spectrophotometer analysis

CNC(=O)[C@H](Cc1c[nH]cn1)NC(=O)CN(CCCc1ccccc1)CC(=O)O
EC50 (Insulin-degrading enzyme [1]): 530 nM
IC50 (Insulin-degrading enzyme [2]): 3.1 µM
IC50 (Insulin-degrading enzyme [3]): 100 nM
